Ab-95 light chain CDR variants: yeast mating affinities

Data: MIT Lincoln Laboratory AlphaSeq set, Engelhart et al. 2022, doi:10.1038/s41597-022-01779-4, as distributed in FLAb.

Target peptide (SARS-CoV-2 spike, HR2 region): PDVDLGDISGINAS

Each scFv is VH, the linker GGGGSGGGGSGGGGS, VL, as in the parent Ab-95, and differs from it in the CDRs of the light chain only.
VH: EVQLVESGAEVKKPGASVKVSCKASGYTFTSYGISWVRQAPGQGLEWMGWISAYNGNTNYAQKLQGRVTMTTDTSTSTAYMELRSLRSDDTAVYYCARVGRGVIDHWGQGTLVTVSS
VL: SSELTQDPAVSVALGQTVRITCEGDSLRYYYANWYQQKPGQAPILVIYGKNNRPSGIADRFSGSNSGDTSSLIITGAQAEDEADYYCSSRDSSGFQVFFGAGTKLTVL

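The starting antibody came from a phage panning campaign against this peptide. Variants in AAYL52 differ from the parent at up to three CDR positions; double and triple changes were sampled at random. In AlphaSeq, yeast of one mating type display the scFv and yeast of the other type display the target. The frequency of each diploid, read from paired DNA barcodes, reflects how well the two displayed proteins bind. Scores were corrected for input abundance and mapped to Kd with protein pairs of known affinity run in the same pool. The assay was run in three technical replicates.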

Substitutions are numbered in sequence along the VL above, starting at 1 (not Kabat).
Affinities are written as log10 Kd with Kd in nM; a lower number is a better binder.
A mean of the replicates is given; it leaves out those without a signal.
"nd" marks a missing value. The strain was present, yet no cells mated with the target were sequenced in any replicate, which points to weak or no binding.

| mean log10 Kd (nM) | detected | signal with controls | changes |
|---|---|---|---|
| 3.95 | 2 of 3 | 5 of 9 | E23M/R53P/F98P |
| 2.37 | 3 of 3 | 2 of 9 | A32V/K50R/F95T |
| 4.34 | 2 of 3 | 1 of 9 | G24K/D91M/F98W |
| 3.46 | 1 of 3 | 1 of 9 | D25F/R28D/P54S |
| nd | 0 of 3 | 0 of 9 | G24P/S26D/G94P |
| 5.17 | 1 of 3 | 3 of 9 | K50A/N52P/F98T |
| 2.06 | 3 of 3 | 0 of 9 | R28S/Y29L/Y31H |
| nd | 0 of 3 | 2 of 9 | A32N/K50C/D91V |
| 0.89 | 3 of 3 | 3 of 9 | Y29Q/Y31P/S55V |
| 2.23 | 3 of 3 | 3 of 9 | N52E/S88P/Q96D |
| 2.14 | 3 of 3 | 3 of 9 | D25Q/N52Q/F98P |
| 3.70 | 2 of 3 | 3 of 9 | R28I/P54Q |
| 5.09 | 1 of 3 | 3 of 9 | Y29F/G49R/R90P |
| 2.73 | 3 of 3 | 0 of 9 | S55P/S93K/V97A |
| 2.99 | 3 of 3 | 3 of 9 | Y31L/S88T |
| 3.57 | 2 of 3 | 1 of 9 | S55H/S88K/F98L |
| 4.27 | 1 of 3 | 2 of 9 | G24L/D25H/N51M |
| 2.88 | 3 of 3 | 5 of 9 | L27H/Y29L/F95R |
| 2.84 | 3 of 3 | 2 of 9 | Y29L/A32G/S92M |
| 3.39 | 1 of 3 | 1 of 9 | S26T/L27E/S93I |
| 3.57 | 2 of 3 | 2 of 9 | N33Q/N51T/S92R |
| 3.63 | 2 of 3 | 0 of 9 | N52M/D91H |
| 2.50 | 3 of 3 | 1 of 9 | N51G/S55L/Q96R |
| 2.06 | 3 of 3 | 7 of 9 | S92G/G94E |
| 3.00 | 3 of 3 | 2 of 9 | R28A/S88E/F98R |
| 3.35 | 3 of 3 | 2 of 9 | K50F/S89P/V97P |
| 4.89 | 2 of 3 | 5 of 9 | Y29L/A32Q/S88Q |
| 2.82 | 3 of 3 | 3 of 9 | D25K/S89F/G94K |
| 2.46 | 3 of 3 | 0 of 9 | R28Y/N33S/Q96A |
| 5.32 | 1 of 3 | 3 of 9 | A32H/P54H/F95M |
| 4.04 | 2 of 3 | 1 of 9 | N51I/R90L/S92A |
| 4.69 | 1 of 3 | 4 of 9 | G49P/N51G/P54I |
| 3.55 | 2 of 3 | 4 of 9 | Y30F/P54W/S89K |
| 3.99 | 3 of 3 | 6 of 9 | D25S/Y29C/S88P |
| 3.86 | 1 of 3 | 2 of 9 | S88F/F95S/F98C |
| nd | 0 of 3 | 1 of 9 | G24I/N51H/S88K |
| 4.51 | 3 of 3 | 5 of 9 | A32P/N33H/S55G |
| 1.34 | 3 of 3 | 3 of 9 | Y31D/N52T/Q96G |
| 3.48 | 1 of 3 | 2 of 9 | G24W/A32R/R53H |
| 2.34 | 3 of 3 | 3 of 9 | N52Y/P54Q/Q96D |
| 2.96 | 1 of 3 | 3 of 9 | L27Y/A32L/P54L |
| 5.52 | 1 of 3 | 1 of 9 | S92G/F98Q |
| 4.70 | 1 of 3 | 1 of 9 | Y30F/S93I/Q96A |
| 4.29 | 2 of 3 | 3 of 9 | N33I/S92E/V97P |
| 1.89 | 3 of 3 | 2 of 9 | E23T/K50D |
| 3.66 | 3 of 3 | 2 of 9 | Y31P/A32R |
| 3.17 | 3 of 3 | 6 of 9 | G49D/D91N/Q96E |
| 5.21 | 1 of 3 | 2 of 9 | S89L/S92C/F98H |
| 2.67 | 3 of 3 | 3 of 9 | D25W/P54A/S92T |
| 1.83 | 3 of 3 | 1 of 9 | D25P/R28Y/S55D |
| 3.11 | 2 of 3 | 1 of 9 | N51R/N52L |
| nd | 0 of 3 | 0 of 9 | A32T/N33F/F95T |
| 2.22 | 3 of 3 | 1 of 9 | R28V/Y31S/F98S |
| 2.98 | 1 of 3 | 1 of 9 | E23F/N51H/F95N |
| 5.60 | 1 of 3 | 6 of 9 | R28L/A32S/Q96V |
| 2.11 | 3 of 3 | 2 of 9 | R90I/S93W/V97E |
| nd | 0 of 3 | 0 of 9 | Y31K/G49C/V97S |
| 4.18 | 1 of 3 | 3 of 9 | A32W/N51P/D91G |
| 2.96 | 3 of 3 | 4 of 9 | N52I/R53Q |
| 4.34 | 3 of 3 | 6 of 9 | Y29I/G49R/G94W |
| 2.41 | 1 of 3 | 0 of 9 | D25L/N33R/G94T |
| 3.18 | 2 of 3 | 4 of 9 | K50M/S88Q/S93W |
| 2.83 | 3 of 3 | 2 of 9 | G24T/Y29H |
| nd | 0 of 3 | 0 of 9 | G49C/R53D/Q96G |
| 4.50 | 1 of 3 | 1 of 9 | S26P/N51W |
| 0.67 | 3 of 3 | 6 of 9 | E23Q/Y29G/Y31S |
| 3.78 | 2 of 3 | 3 of 9 | G24E/S93I |
| 2.67 | 3 of 3 | 3 of 9 | N52T/R53T/S55N |
| 3.53 | 1 of 3 | 1 of 9 | R28S/V97R/F98M |
| 2.94 | 3 of 3 | 5 of 9 | E23D/S55Y/S93E |
| 2.50 | 3 of 3 | 0 of 9 | Y29N/N52V/S89G |
| 4.36 | 2 of 3 | 3 of 9 | G24F/R90S/Q96W |
| 3.84 | 2 of 3 | 2 of 9 | D25M/N51V |
| 4.12 | 2 of 3 | 3 of 9 | R28H/R53P/S88F |
| 3.51 | 1 of 3 | 3 of 9 | D25G/L27E/R90H |
| 2.17 | 3 of 3 | 4 of 9 | G24L/Y30D/F98M |

For reference, 9 entries of the list once more:

changes,mean log10 Kd (nM),detected,signal with controls
N52Y/P54Q/Q96D,2.34,3 of 3,3 of 9
N52E/S88P/Q96D,2.23,3 of 3,3 of 9
Y29L/A32Q/S88Q,4.89,2 of 3,5 of 9
E23Q/Y29G/Y31S,0.67,3 of 3,6 of 9
A32P/N33H/S55G,4.51,3 of 3,5 of 9
R28S/V97R/F98M,3.53,1 of 3,1 of 9
Y29Q/Y31P/S55V,0.89,3 of 3,3 of 9
Y30F/P54W/S89K,3.55,2 of 3,4 of 9
G49P/N51G/P54I,4.69,1 of 3,4 of 9

For reference, the parent read 2.31 as the reference entry and 2.25 as a member of this library.
Three control strains display no target. For library AAYL52, 28% of the pairings with them gave a signal, with a median of 3.91 and one signal in twenty below 2.90, so weak values seen in few replicates may be background. For each scFv, signals with the empty controls are counted beside the result.